{"source": "patent US7964734B2", "about": "“Raloxifene acid addition salts and/or solvates thereof, improved method for purification of said raloxifene acid addition salts and/or solvates thereof and pharmaceutical compositions comprising these” (A/S Gea Farmaceutisk Fabrik, priority 2002, dated 2011)", "assay": "Intrinsic dissolution rate, Rotation Disc Method (USP 1087)", "format": "physicochemical", "conditions": "37° C., 100 rpm, average of two measurements", "experimental": "The intrinsic dissolution rate of raloxifene succinate, raloxifene DL-lactate, raloxifene L-lactate, raloxifene L-lactate hemihydrate, raloxifene malonate, raloxifene sulphate (2-propanol solvate) and raloxifene hydrochloride were tested in dilute solutions of hydrochloric acid and in dilute solutions of phosphorous acid containing NaCl in amounts so the chloride ion concentration in each solution was 0.1 M. The tests were performed at 37° C. and at pH of 1, 2, 3, 4, and 5, respectively. The raloxifene hydrochloride salt used in these experiments was purchased from Otto Bradt GmbH (batch MA/RF/12003) while the rest of the raloxifene acid additions salts were prepared according to Example 1-6.\nThe experiments were carried out following the procedure of Rotation Disc Method (USP 1087) using Vankel VK 7000 Intrinsic dissolution apparatus (Vankel Technology group, W. Vankelion) equipped with Vankel 12-4120 intrinsic disc having a surface area of 0.5 cm^2, Vankel 12-4130 surface plate, Vankel 12-4140 punch, and Vankel shaft and holder (surface area: 0.5 cm^2) and operating at a rotation rate of 100 rpm.\nThe buffer solution is handled in a 750 ml measuring bottle, degassed and transferred into a dissolution vessel. Approximately 100 mg compound is weighed out and transferred into an intrinsic disc. Said disc is then assembled, and to said disc a disc is applied in the IR-press at a pressure of 5 kN for 1 minute. The disc is started and samples of 10 ml are collected by use of “pressure vials” after 1, 10, 20, 30, 45, and 60 minutes. The change of volume is corrected using the equation: Q=Vs×(sumCn−1)+Cn×Vt wherein Q designates the volume at the time t, C designates the concentration of the sample n, Vt designates the volume of the liquid collected at the time t, and Vs designates the volume of the sample collected. The sample is measured against a standard using HPLC. In these measurements a 5 microns 3.9×150 mm column filled with symmetrical material is employed and as eluant a 20 mM phosphate buffer KH2PO4, pH 6.8 mixed with acetonitrile and tetrahydrofuran in the ratio 55:35:10 is used.\nThe standard is prepared by use of following procedure: 20 mg of salt is dissolved initially in 100 ml of MeOH and then 1 ml of this solution is transferred to a 50 ml flask with water and then 2 ml to a 20 ml flask of buffer in question.\npH 1: a 0.1 M HCl is used.\n0.025 M Phosphate buffer solution pH 2.0: 3.40 g of potassium dihydrogen phosphate is dissolved in 900 ml of water. Then pH is adjusted to 2.0 with phosphoric acid and diluted to 1000.0 ml with water. Exactly 5.85 g of NaCl is added to 1 L of buffer.\n0.025 M Phosphate buffer solution pH 3.0: 3.40 g of potassium dihydrogen phosphate is dissolved in 900 ml of water. Then pH is adjusted to 3.0 with phosphoric acid and diluted to 1000.0 ml with water. Exactly 5.85 g of NaCl is added to 1 L of buffer.\n0.022 M Phosphate buffer solution pH 4.0: 3.0 g of potassium dihydrogen phosphate is dissolved in 800 ml of water. Then pH is adjusted with 1 M potassium hydroxide and phosphoric acid and diluted to 1000.0 ml with water. Exactly 5.85 g of NaCl is added to 1 L of buffer. 0.02 M Phosphate buffer solution pH 5.0: 2.72 g of potassium dihydrogen phosphate is dissolved in 800 ml of water. Then pH is adjusted with 1 M potassium hydroxide and diluted to 1000.0 ml with water. Exactly 5.85 g of NaCl is added to 1 L of buffer.", "data": [{"substance": "[6-hydroxy-2-(4-hydroxyphenyl)benzo[b]thien-3-yl][4-[2-(1-piperidinyl)ethoxy]phenyl-, sulphate (2-propanol solvate)", "values": [{"measurement": "intrinsic dissolution rate (IDR)", "setting": "Hydrochloride, pH 1 (0.1 M HCl)", "value": 0.0036, "unit": "μmol/min * cm^2"}, {"measurement": "intrinsic dissolution rate (IDR)", "setting": "Phosphate, pH 2, chloride 0.1 M", "value": 0.0137, "unit": "μmol/min * cm^2"}, {"measurement": "intrinsic dissolution rate (IDR)", "setting": "Phosphate, pH 3, chloride 0.1 M", "value": 0.0052, "unit": "μmol/min * cm^2"}, {"measurement": "intrinsic dissolution rate (IDR)", "setting": "Phosphate, pH 4, chloride 0.1 M", "value": 0.0109, "unit": "μmol/min * cm^2"}, {"measurement": "intrinsic dissolution rate (IDR)", "setting": "Phosphate, pH 5, chloride 0.1 M", "value": 0.0081, "unit": "μmol/min * cm^2"}]}]}
